Columns and labels:
in vitro = details: human, microsomes
[1] = Microsomal metabolic stability, human liver microsomes; details: HLM 0.5

With O=C(O)Cc1ccccc1Nc1c(Cl)cccc1Cl [Diclofenac] the microsomal CLint (in vitro) was 180 µL/min/mg.
For C[C@]12CC[C@H]3[C@@H](CCC4=CC(=O)CC[C@@]43C)[C@@H]1CC[C@@H]2O [Testosterone], the “CLint(mic)” value [1] was 107.1 µL/min/mg.

— publication PMC9785231, “Synthesis and Pharmacological Evaluation of Enantiopure N-Substituted Ortho-c Oxide-Bridged 5-Phenylmorphans” (Molecules, 2022)
